This is an account of results in US10233152B2, “LSD1 inhibitors” (Mirati Therapeutics, Inc., priority 2015, dated 2019).

Structures are written as SMILES.

In the assay the test system is MV4-11 cells. The experiment in a line: Inhibition of LSD1-mediated cell proliferation, CellTiter Glo luminescence assay. As to conditions: Homo sapiens, MV4-11, 168 h, read-out: Inhibition of LSD1-mediated Cell Proliferation IC50.
For `O=C(O)/C=C/c1ccc(OCCN2CCC(N[C@@H]3C[C@H]3c3ccccc3)CC2)cc1` [Example 40, (E)-3-(4-(2-(4-(((1R,2S)-2-Phenylcyclopropyl)amino)piperidin-1-yl)ethoxy)phenyl)acrylic acid], the IC50 was below 1 nM.

On to `OC(COc1ccccc1)CN1C[C@H]2C[C@@H](C1)C2N[C@@H]1C[C@H]1c1ccccc1` (relative stereo) [Example 9, 1-phenoxy-3-[(1R,5S)-6-[[(trans)-2-phenylcyclopropyl]amino]-3-azabicyclo[3.1.1]heptan-3-yl]propan-2-ol], for which the IC50 turned out to be 3 nM.

Turning to `CN(C)C(=O)Cc1ccc(OCCN2CCC(N[C@@H]3C[C@H]3c3ccccc3)CC2)cc1` [Example 18, N,N-Dimethyl-2-(4-(2-(4-(((1R,2S)-2-phenylcyclopropyl)amino)piperidin-1-yl)ethoxy)phenyl)acetamide], the IC50 is below 1 nM.

Regarding `O=C(O)Cc1ccc(OCCN2CCC(N[C@@H]3C[C@H]3c3ccccc3)CC2)cc1F` [Example 43, 2-(2-Fluoro-4-(2-(4-(((1R,2S)-2-phenylcyclopropyl)amino)piperidin-1-yl)ethoxy)phenyl)acetic acid], the IC50 was found to be 10 nM.

On to `O=C(O)Cc1ccc(OCCN2CCC(N[C@@H]3C[C@H]3c3ccccc3)CC2)cc1` [Example 15, 2-(4-(2-(4-(((1R,2S)-2-Phenylcyclopropyl)amino)piperidin-1-yl)ethoxy)phenyl)acetic acid], for which the IC50 is below 1 nM.

As to `O=C1CC(N[C@@H]2C[C@H]2c2ccccc2)CC(=O)N1CCOc1ccc(Br)cc1` [Example 47, 1-(2-(4-bromophenoxy)ethyl)-4-(((1R,2S)-2-phenylcyclopropyl)amino)piperidine-2,6-dione], the IC50 is 885 nM.

On to `CNC(=O)NCCN1CCC(N[C@@H]2C[C@H]2c2ccccc2)CC1` [Example 38, 1-methyl-3-(2-(4-(((1R,2S)-2-phenylcyclopropyl)amino)piperidin-1-yl)ethyl)urea], for which the IC50 is below 1 nM.

As for `Cc1cc(OCCN2CCC(N[C@@H]3C[C@H]3c3ccccc3)CC2)ccn1` [Example 36, 1-[2-[(2-methyl-4-pyridyl)oxy]ethyl]-N-[(1R, 2S)-2-phenylcyclopropyl]piperidin-4-amine], the IC50 came to 28 nM.

As for `O=C(O)c1ccncc1OCCN1CCC(N[C@@H]2C[C@H]2c2ccccc2)CC1` [Example 140], the IC50 was determined as 30 nM.

For the compound `O=C(O)/C=C/c1ccc(OCC(O)CN2CCC(N[C@@H]3C[C@H]3c3ccccc3)CC2)cc1` (stereo partly drawn) [Example 35, (E)-3-(4-(2-hydroxy-3-(4-(((1R,2S)-2-phenylcyclopropyl)amino)piperidin-1-yl)propoxy)phenyl)acrylic acid], the IC50 worked out at 3 nM.
